# Antibody variant affinities, Ab-95 light chain, assay 2

All variants were tested on one target, the spike HR2 peptide PDVDLGDISGINAS (SARS-CoV-2).

Each scFv is VH, a (GGGGS)3 linker, VL, as in the parent Ab-95, and differs from it in the CDRs of the light chain only.
VH: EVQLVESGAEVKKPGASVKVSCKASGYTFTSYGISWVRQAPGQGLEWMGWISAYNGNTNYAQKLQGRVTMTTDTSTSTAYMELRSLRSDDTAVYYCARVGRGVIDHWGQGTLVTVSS
VL: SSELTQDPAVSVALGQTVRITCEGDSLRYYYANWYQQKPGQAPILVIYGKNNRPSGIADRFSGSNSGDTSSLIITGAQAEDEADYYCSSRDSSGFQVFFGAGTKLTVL

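The starting antibody came from a phage panning campaign against this peptide. The library (AAYL52) carries one to three amino acid substitutions per variant, with no insertions or deletions. The scFvs were displayed on barcoded MATa yeast, the peptide on MATalpha yeast. Binding brings cells together so that they mate, and sequencing counts the barcode pairs among the diploids. A regression on co-assayed BCL2-family reference pairs converts the normalised counts of each replicate to an apparent Kd. The assay was run in three technical replicates.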

Each variant is given by its three light chain CDRs, as the data file delimits them; those of the parent are EGDSLRYYYAN, GKNNRPS, SSRDSSGFQVF.
Values are apparent Kd, the geometric mean of the replicates that gave a signal; lower means stronger binding.
Where no diploid with the target was found in any replicate, the entry reads "nd": below detection, most likely a poor binder, though not proof of it.
Empty control strains, which show no peptide, gave a signal in 28% of pairings with library AAYL52; the median was 8.2 µM and 95% of these signals were weaker than 800 nM. No background was subtracted. Also given: how often the same scFv was detected with the empty control strains.
In this assay the parent's reference entry averaged 200 nM; its copy inside this library read 180 nM.

| Kd (apparent) | replicates with signal | control signals | CDR-L1 | CDR-L2 | CDR-L3 |
|---|---|---|---|---|---|
| nd | 0 of 3 | 0 of 9 | EGDSLRYYYAN | TKNDSPS | SSRDSSGFQVF |
| 1.7 µM | 3 of 3 | 2 of 9 | EGDSLRGYYAN | GKNNRPS | NWRDSSGFQVF |
| 26 µM | 1 of 3 | 2 of 9 | EGMSLRLYYAN | GVNNRPS | SSRDSSGFQVF |
| 5.9 nM | 3 of 3 | 1 of 9 | EGDSLRYYRAN | GNNNRPS | SSRDSSGCQVF |
| nd | 0 of 3 | 2 of 9 | EGDSLRYYYAN | GPKNRPS | SSRDWSGFQVF |
| 2.2 µM | 1 of 3 | 0 of 9 | EGDSLRYSYWN | GKNNRPF | SSRDSSGFQVF |
| 120 nM | 3 of 3 | 2 of 9 | EGDSLRYSYAR | GKNNRPS | SSRDSSGNQVF |
| 490 nM | 3 of 3 | 0 of 9 | EGDSLRYYYAN | GKNNRPS | CSRCNSGFQVF |
| 10 µM | 1 of 3 | 2 of 9 | EGDSLRYYPAN | GKYNRPS | SSRKSSGFQVF |
| 5.0 µM | 1 of 3 | 2 of 9 | EGDQLRYYYAM | GKNNRPS | SSFDSSGFQVF |
| 500 nM | 3 of 3 | 4 of 9 | LGDSQRYYYAN | GKNNRPS | SSRDSSGQQVF |
| 32 µM | 1 of 3 | 2 of 9 | EGDSLRIYYAN | GKNNCPS | SSRDSSGFQVV |
| 7.6 µM | 2 of 3 | 5 of 9 | EGDSLRYYYAN | GKTDRPS | YSRDSSGFQVF |
| 210 µM | 2 of 3 | 3 of 9 | EGDSLRLYYLN | GKNNRPS | SSRDSSGFRVF |
| 24 nM | 3 of 3 | 1 of 9 | EGDSLRYAYAN | GKNNRPS | SIRDSSGFQVQ |
| 1.5 µM | 3 of 3 | 5 of 9 | AGDSHRYYWAN | GKNNRPS | SSRDSSGFQVF |
| nd | 0 of 3 | 0 of 9 | EGDSLRYYYAN | GKWNRPS | SSKDSSGFDVF |
| 140 µM | 1 of 3 | 2 of 9 | EGDSLRYYYAN | GLNNRPY | SSCDSSGFQVF |
| 510 nM | 3 of 3 | 3 of 9 | ECDSLRYYYAN | GKNQRPS | SSRKSSGFQVF |
| 5.5 µM | 3 of 3 | 4 of 9 | EWDSQRYYYAN | GKNNRPS | QSRDSSGFQVF |
| 11 µM | 3 of 3 | 5 of 9 | EGDPLRYYYAN | GKNNRPS | SSRDTSCFQVF |
| nd | 0 of 3 | 2 of 9 | EGDSLRYYNAN | GKNNRPS | SSRDSSAFQVQ |
| 590 nM | 3 of 3 | 4 of 9 | EGDSLRYYYAN | GKNNRPS | SHRDSSGEQRF |
| 220 µM | 1 of 3 | 0 of 9 | EGDSLRYYYAN | GANNRPS | SSIDSSGFQVQ |
| 16 µM | 1 of 3 | 0 of 9 | EGDSLRYWYAN | GKNNRMS | SSRDSSDFQVF |
| 8.7 µM | 3 of 3 | 3 of 9 | EGDSLRYYYAN | GACNRPS | SSRDSSGFVVF |
| 1.2 µM | 3 of 3 | 1 of 9 | TGDSLRYYYAN | GKNNRWS | SSRDSHGFQVF |
| 4.1 µM | 2 of 3 | 2 of 9 | EGDSLRYYYAN | GKNNHPS | SSRDSNGFPVF |
| 11 µM | 3 of 3 | 1 of 9 | PGDSLRYYYTN | GKNNRPS | SSRDSSGFQVF |
| 4.8 µM | 3 of 3 | 3 of 9 | ECDSLRYYYAN | GKNNRPM | SSRDSSYFQVF |
| 25 nM | 3 of 3 | 2 of 9 | EGDSLRCDYAN | GKNNRPS | SCRDSSGFQVF |
| 1.1 µM | 3 of 3 | 1 of 9 | EGDSGRYYYAN | GKNARPD | SSRDSSGFQVF |
| nd | 0 of 3 | 0 of 9 | EGDSLSYYYAN | GKNHRPS | SSRDSSKFQVF |
| 440 nM | 3 of 3 | 0 of 9 | EGDSERYDYAN | GKNLRPS | SSRDSSGFQVF |
| 2.0 µM | 2 of 3 | 1 of 9 | EGDSLRYFYAN | GKNNRPS | SSRDNSGFQVF |
| 700 nM | 2 of 3 | 1 of 9 | EGVSLRYYYAN | GKNNRPS | MIRDSSGFQVF |
| 1.3 µM | 2 of 3 | 2 of 9 | EGDSLRYYYAN | GKNNGGS | SSRDSSGFQVF |
| 5.7 µM | 2 of 3 | 1 of 9 | EIDSLRYYLAN | GKNNYPS | SSRDSSGFQVF |
| 2.9 µM | 1 of 3 | 1 of 9 | EGDSLRYYYAN | GKTNRPS | SSLDSSGFQVF |
| 13 µM | 2 of 3 | 5 of 9 | EGDSIRRYMAN | GKNNRPS | SSRDSSGFQVF |
| 9.1 µM | 3 of 3 | 1 of 9 | EGDSLRYYYAN | GMNNRNS | SVRDSSGFQVF |
| 3.9 µM | 2 of 3 | 3 of 9 | EGDSCRYYYAN | GLNNRPS | SSRDSIGFQVF |
| 4.9 µM | 3 of 3 | 3 of 9 | EGDSLRYYYAN | PKNNIPS | SSRCSSGFQVF |
| 5.7 µM | 3 of 3 | 4 of 9 | EGDSLRYYYAA | GKNNRPS | SSRPSTGFQVF |
| 76 nM | 3 of 3 | 2 of 9 | EGDSLRYYYAN | GKNNRPS | SSRDSRGFGFF |
| 3.2 µM | 3 of 3 | 3 of 9 | EGDSLRYFYAN | GKNNRPS | SSRYSSGFQVF |
| 1.1 µM | 3 of 3 | 3 of 9 | EGDSLRYYGAN | GKNNRPS | SSRASSGFQVE |
| 23 µM | 3 of 3 | 2 of 9 | EGDSLDYYYSN | GKNNRPS | SSVDSSGFQVF |
| 6.1 µM | 1 of 3 | 4 of 9 | EGDSLFYYYAN | CKNNKPS | SSRDSSGFQVF |
| 74 nM | 3 of 3 | 2 of 9 | EGDSLRYYWAN | GLNNRPS | SSRDSSGFQDF |
| 200 nM | 3 of 3 | 4 of 9 | EGDSLRYYYAN | GKNDRPS | SSRDSSGFDVA |
| 1.1 µM | 3 of 3 | 3 of 9 | EGDSLRYYYAN | GKHNRPS | SSRDSSPWQVF |
| 58 µM | 1 of 3 | 5 of 9 | EGDSLRYYYAN | YKNCRPS | SSRDSSGFQSF |
| nd | 0 of 3 | 2 of 9 | EGDSLRYYYAH | GKNNYPS | SSRDSSGFQVI |
| 3.2 µM | 2 of 3 | 3 of 9 | EGDSCDYKYAN | GKNNRPS | SSRDSSGFQVF |
| nd | 0 of 3 | 0 of 9 | EGDKLRYYYWN | GKNNRPS | SSRDSSGYQVF |
| 190 nM | 3 of 3 | 1 of 9 | EEDSLRYYYAN | GKNNRPS | SSRDSSGKQHF |
| 110 nM | 3 of 3 | 2 of 9 | EGDSLRHYYAN | GKNNRPS | SSRMSAGFQVF |
| nd | 0 of 3 | 3 of 9 | EMDQLRYYYAN | GKNNRPC | SSRDSSGFQVF |
| 1.1 µM | 1 of 3 | 3 of 9 | EGDSLRYYYAN | GKNNRPS | SGKDSSGFQVF |
| 4.1 µM | 1 of 3 | 2 of 9 | EGDSKRYYYAE | GKNNRPS | HSRDSSGFQVF |
| 31 µM | 3 of 3 | 1 of 9 | EGDSGRMYYAN | RKNNRPS | SSRDSSGFQVF |
| 54 nM | 3 of 3 | 2 of 9 | LGDSLRYYSAN | GTNNRPS | SSRDSSGFQVF |

The first 4 variants above that were never detected:

CDR-L1	CDR-L2	CDR-L3	Kd (apparent)	replicates with signal	control signals
EGDSLRYYYAN	TKNDSPS	SSRDSSGFQVF	nd	0 of 3	0 of 9
EGDSLRYYYAN	GPKNRPS	SSRDWSGFQVF	nd	0 of 3	2 of 9
EGDSLRYYYAN	GKWNRPS	SSKDSSGFDVF	nd	0 of 3	0 of 9
EGDSLRYYNAN	GKNNRPS	SSRDSSAFQVQ	nd	0 of 3	2 of 9

Data: MIT Lincoln Laboratory AlphaSeq set, Engelhart et al. 2022, doi:10.1038/s41597-022-01779-4, as distributed in FLAb.